ChEMBL document CHEMBL1128390, “Synthesis, antitubulin and antimitotic activity, and cytotoxicity of analogs of 2-methoxyestradiol, an endogenous mammalian metabolite of estradiol that inhibits tubulin polymerization by binding to the colchicine binding site” (J Med Chem, 1995)

By UniProt entry, the sequences of proteins in these tests, tags left out.
UniProt Q6B856, whole entry: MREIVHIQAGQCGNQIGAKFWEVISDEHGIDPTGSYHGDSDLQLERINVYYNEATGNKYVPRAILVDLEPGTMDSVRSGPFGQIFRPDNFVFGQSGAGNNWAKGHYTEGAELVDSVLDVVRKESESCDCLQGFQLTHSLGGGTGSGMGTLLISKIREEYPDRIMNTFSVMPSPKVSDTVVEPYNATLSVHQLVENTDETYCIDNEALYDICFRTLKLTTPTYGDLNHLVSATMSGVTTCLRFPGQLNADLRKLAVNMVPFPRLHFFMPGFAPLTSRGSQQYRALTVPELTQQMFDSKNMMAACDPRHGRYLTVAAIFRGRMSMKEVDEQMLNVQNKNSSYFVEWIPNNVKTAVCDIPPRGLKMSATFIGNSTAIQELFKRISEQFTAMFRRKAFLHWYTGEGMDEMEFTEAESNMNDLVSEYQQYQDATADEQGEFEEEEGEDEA
UniProt P06211, whole entry, looked up: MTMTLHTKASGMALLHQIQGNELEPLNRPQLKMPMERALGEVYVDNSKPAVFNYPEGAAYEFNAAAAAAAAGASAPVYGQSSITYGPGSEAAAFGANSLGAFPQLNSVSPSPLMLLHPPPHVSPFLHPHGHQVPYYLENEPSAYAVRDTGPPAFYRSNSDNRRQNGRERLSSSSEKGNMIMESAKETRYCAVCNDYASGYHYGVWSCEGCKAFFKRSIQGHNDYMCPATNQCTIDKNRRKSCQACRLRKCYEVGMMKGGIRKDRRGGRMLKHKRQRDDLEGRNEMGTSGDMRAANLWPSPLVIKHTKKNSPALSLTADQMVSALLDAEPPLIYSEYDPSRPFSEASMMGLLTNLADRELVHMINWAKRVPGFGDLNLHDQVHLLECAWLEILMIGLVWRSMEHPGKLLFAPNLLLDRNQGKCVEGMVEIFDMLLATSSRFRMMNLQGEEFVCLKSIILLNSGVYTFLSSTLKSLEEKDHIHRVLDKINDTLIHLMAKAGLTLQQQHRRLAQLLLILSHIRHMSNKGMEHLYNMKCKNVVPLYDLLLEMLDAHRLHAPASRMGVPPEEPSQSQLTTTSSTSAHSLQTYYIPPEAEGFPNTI
UniProt Q62986, whole entry, looked up: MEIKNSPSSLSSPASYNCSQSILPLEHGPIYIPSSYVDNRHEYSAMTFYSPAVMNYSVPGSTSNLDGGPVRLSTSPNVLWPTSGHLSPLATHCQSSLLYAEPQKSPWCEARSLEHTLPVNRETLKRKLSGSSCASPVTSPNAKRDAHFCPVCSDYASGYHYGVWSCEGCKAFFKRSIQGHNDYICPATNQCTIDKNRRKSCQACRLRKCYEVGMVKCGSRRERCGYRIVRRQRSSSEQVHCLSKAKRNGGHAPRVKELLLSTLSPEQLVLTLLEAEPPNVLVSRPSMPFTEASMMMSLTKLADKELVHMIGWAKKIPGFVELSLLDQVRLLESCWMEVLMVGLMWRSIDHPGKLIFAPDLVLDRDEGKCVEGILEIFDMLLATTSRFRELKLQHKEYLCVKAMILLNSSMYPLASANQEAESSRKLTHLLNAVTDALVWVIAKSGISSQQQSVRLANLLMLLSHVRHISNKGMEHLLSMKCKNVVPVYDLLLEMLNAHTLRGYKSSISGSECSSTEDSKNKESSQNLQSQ

Key:
[1] = molecular target: Tubulin beta chain (Bos taurus) (UniProt Q6B856); test: Percentage inhibition of colchicine binding to tubulin.; design: concentration or dose not given beside the values; details: concentration not given here
[2] = molecular target: T1, Estrogen receptor (Rattus norvegicus) (UniProt P06211+Q62986); test: Relative binding affinity (RBA) for estrogen receptor at 25 degree C; type: protein assay
[3] = molecular target: T1, Estrogen receptor (Rattus norvegicus); test: Relative binding affinity (RBA) for estrogen receptor at 0C; type: protein assay

| Compound | inhibition [1] [%] | RBA [2] | RBA [3] |
| --- | --- | --- | --- |
| CCOc1cc2c(cc1O)CC[C@@H]1[C@@H]2CC[C@]2(C)[C@@H](O)CC[C@@H]12 | 71 | 0.02 |  |
| CCSc1cc2c(cc1O)CC[C@@H]1[C@@H]2CC[C@]2(C)[C@@H](O)CC[C@@H]12 | 18 | 0.235 | 0.285 |
